{
  "source": "patent US6255317A",
  "about": "“Cholesterol biosynthesis inhibitors” (Hanwha Chemical Corporation, priority 1998, dated 2001)",
  "test_system": "Syrian Golden Hamster",
  "experiment": "In vivo effect on plasma lipids and glucose in Syrian Golden Hamster",
  "settings": "against normal diet control; 6.0 mg/kg/day",
  "procedure": "In order to investigate the effect of the compound of formula (1) of the invention, the compound was orally administered into male Syrian Golden Hamsters having weights of 90~110 g and then blood was taken from each animal. Plasma lipids, i.e., total cholesterol, LDL-cholesterol, HDL-cholesterol and triglycerides were analyzed using an automatic analyzer (Automatic analyzer model Hitachi 7150).\nMale Syrian Golden Hamsters weighing 90~110 g distributed from Samyuk Animal Laboratory, Seoul, Korea were bred under the following conditions: They were maintained under reverse light cycle (light cycle: from 6 P.M to 6 A.M; dark cycle: from 6 A.M. to 6 P.M.). The food and water were supplied at 10 A.M. The commercially available standard rodent chows were used. The hamsters were divided into 6 or 7 animals per group. The animals were fasted for 12 hours before administrating the drug. Then, dehydrocoridaline derivatives dissolved in a 0.25% methyl cellulose solution was administered orally for 14 days at the indicated time per a day. After fasting animals for 24 hours from the last administration, blood was extracted using a cardiac puncture and plasma was then isolated. Plasma lipids, i.e., total cholesterol, LDL-cholesterol, HDL-cholesterol and triglyceride values were analyzed using Automatic Analyzer (Hitachi 7150).",
  "data": [
    {"smiles": "CC[C@H](C)C(=O)O[C@H]1C[C@@H](C)C=C2C=C[C@H](C)[C@H](CC[C@@H]3C[C@@H](O)CC(=O)O3)[C@H]21", "note": "[lovastatin, reference compound]", "values": [
      {"measurement": "Trigly-ceride, percent change in parentheses", "result": -37.8, "unit": "%"}
    ]}
  ]
}
